Screens from PubChem.
Compounds with a hit are over-represented: about 2.2% of the library has one in this group of screens.
SIRT5 block: blocks human SIRT5 desuccinylation of peptide | Q9NXA8 | Purified SirT5, succinyl-peptide AMC, trypsin-coupled fluorescence | inhibition, % at 15 µM | hit rate 1.1% among 330,000; in the data active means inhibition above about 15%
S100A4 MyoIIA: inhibitors of human S100A4 binding to myosin IIA peptide. AID 652163. hit rate 0.14% among 360,000. S100A4/TAMRA-MyoIIA peptide fluorescence polarization. P26447. inhibition, % at 10.7 µM;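 active means mean inhibition of at least 70% across replicates, with every replicate also reaching that level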
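Assay system: human S100A4 monomer with TAMRA-labelled myosin IIA peptide / Buffer or medium: Calcium-containing HEPES buffer, pH 7.2 / Reagent: TAMRA-labelled myosin IIA heavy-chain peptide probe, 5 nM / Compound: one dose per compound / Timing: polarization read 5 min after assay mix addition, stable 5–60 min / Benchmarks: neutral control DMSO, positive control TFP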
PDI turbidity: inhibitors of human protein disulfide isomerase; P07237; PDI insulin aggregation turbidity, A650, 90 min; inhibition, % at 10 µM; hit rate 0.052% among 350,000; AID 588391;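 active means mean inhibition across replicates of 30% or more, whatever share of single replicates reach that level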
FGF22 binding: shifts melting point of recombinant human FGF22; Q9HCT0; recombinant FGF22 thermal shift, SYPRO orange fluorescence; percent of sucrose octasulfate shift, DMSO zero; activity (Tm shift, normalised), % at 9.99 µM; hit rate 1.5% among 340,000; AID 651658;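 active means mean Tm shift, scaled 0 neutral to 100 positive control, at about 1.3% or above, every replicate too, limit read from the data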
ERp5 inh: ERp5 (human) disulfide isomerase inhibition; Q15084; ERp5 insulin aggregation, absorbance 650 nm, 90 min; inhibition, % at 9.99 µM; hit rate 0.05% among 350,000;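 active means mean replicate inhibition above about 25%, with every replicate also reaching it, limit read from the data, passing the limit was not always enough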
Yeast UUG start: modulators of start codon recognition fidelity in yeast. activity score, % at 18.7 µM. S. cerevisiae UUG-firefly luciferase reporter, luminescence/redox ratio. 350,000 compounds, 0.13% hits;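 active means replicate mean at a twofold rise or more, about +100% in these data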;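 further: firefly luciferase made from a UUG start codon reports start codon fidelity; reporter light over untreated wells divided by growth signal over untreated wells; some hits fall short of that in this replicate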
Active calls of the source: *.

What do the screens show for `O=S(=O)(c1ccc2nnn(O)c2c1)N1CCOCC1`?
SIRT5 block: 1; S100A4 MyoIIA: 0; PDI turbidity: 0; FGF22 binding: 1; ERp5 inh: 3; Yeast UUG start: -5

Results for Nc1nnc(CC(=O)N/N=C/c2ccc(-c3ccc(F)cc3)o2)s1 ?
SIRT5 block: 1; S100A4 MyoIIA: 1; PDI turbidity: 2; FGF22 binding: 0; ERp5 inh: 2; Yeast UUG start: -7

What do the screens show for `Nc1nnc(CC(=O)N/N=C/c2ccc(-c3cccc(C(=O)O)c3)o2)s1`?
SIRT5 block: 20*; S100A4 MyoIIA: 0; PDI turbidity: 0; FGF22 binding: 0; ERp5 inh: -12; Yeast UUG start: -10

How did CC(NS(=O)(=O)OCC(Cl)(Cl)Cl)c1ccc(Br)cc1 (stereo unspecified) do in these assays?
SIRT5 block: -1; S100A4 MyoIIA: -1; PDI turbidity: 3; FGF22 binding: 43*; ERp5 inh: -6; Yeast UUG start: -8

What do the screens show for `NS(=O)(=O)c1ccc(CCNC(=O)c2cc(-c3ccc(Br)cc3)nc3ccccc23)cc1`?
PDI turbidity: -6

How did NS(=O)(=O)c1ccc(CCNC(=O)c2cc(-c3ccccn3)nc3ccc(Br)cc23)cc1 do in these assays?
SIRT5 block: 1; S100A4 MyoIIA: -30; PDI turbidity: -4; FGF22 binding: 43*; ERp5 inh: 3

How did O=S(=O)(c1ccccc1F)N1CC[C@@H]2[C@H]1c1cc(-c3ccc(F)cc3)ccc1N[C@@H]2CO do in these assays?
SIRT5 block: 5; S100A4 MyoIIA: 2; FGF22 binding: 1; ERp5 inh: -1; Yeast UUG start: -19

Results for O=S(=O)(N[C@H]1CC[C@H](CCn2cc(C3CC3)nn2)O[C@@H]1CO)c1ccc(Cl)cc1 ?
SIRT5 block: 4; S100A4 MyoIIA: -15; FGF22 binding: 0; ERp5 inh: -3; Yeast UUG start: -8

Results for c1ccc2c(CN3CCCCC3)csc2c1 ?
SIRT5 block: 15*; S100A4 MyoIIA: -4; PDI turbidity: -2; FGF22 binding: 0; ERp5 inh: -1

How did COCC(=O)N1[C@H](C(=O)Nc2ccccc2)[C@@H](CO)[C@@H]2Cn3c(ccc(-c4ccccc4)c3=O)[C@@H]21 do in these assays?
SIRT5 block: -18; S100A4 MyoIIA: -18; ERp5 inh: 0; Yeast UUG start: 2

What do the screens show for `CCOc1ccc(Nc2nc3cc(S(=O)(=O)CC)ccc3o2)cc1`?
SIRT5 block: 18*; S100A4 MyoIIA: -4; PDI turbidity: 11; FGF22 binding: 0; ERp5 inh: -3; Yeast UUG start: -14

How did COc1ccc2c3c(n(C)c2c1)[C@H](CO)N(C(=O)c1ccc(F)cc1)CC31CCN(C(=O)c2ccc(F)cc2)CC1 do in these assays?
SIRT5 block: 2; S100A4 MyoIIA: 9; FGF22 binding: 0; ERp5 inh: -14

What do the screens show for `O=C1C=CCC(/C=C/c2ccccc2)O1` (stereo unspecified)?
SIRT5 block: -2; S100A4 MyoIIA: 0; FGF22 binding: 44*; ERp5 inh: -1

How did CC=Cc1ccc2n(c1=O)C[C@H]1[C@H](CO)[C@@H](C(=O)NCC3CC3)[C@@H]2N1Cc1ccccc1OC (mixture of isomers) do in these assays?
SIRT5 block: 1; S100A4 MyoIIA: -16; FGF22 binding: 0; ERp5 inh: 1

How did O=C(COc1ccc(F)cc1)c1ccc2c(c1)CCCC2 do in these assays?
PDI turbidity: -10; Yeast UUG start: -10

How did O=C(COc1ccc(Cc2ccccc2)cc1)c1ccc(F)cc1 do in these assays?
SIRT5 block: 16*; S100A4 MyoIIA: -1; PDI turbidity: -3; FGF22 binding: 0; ERp5 inh: 0; Yeast UUG start: -5

What do the screens show for `CCOc1cc2c(cc1OC)C(c1cccc([N+](=O)[O-])c1)NCC2` (stereo unspecified)?
SIRT5 block: -3; S100A4 MyoIIA: 1; PDI turbidity: 6; FGF22 binding: 43*; ERp5 inh: -4

How did C[C@@H]1CCCCO[C@H](CN(C)C(=O)CCCN(C)C)[C@@H](C)CN([C@H](C)CO)C(=O)c2cc(NC(=O)CCCN(C)C)ccc2O1 do in these assays?
SIRT5 block: 2; S100A4 MyoIIA: 1; FGF22 binding: 0; ERp5 inh: 2

Results for CO[C@H]1CN(C)C(=O)c2ccc(NC(=O)C3CC3)cc2OC[C@@H](C)N(C)C[C@@H]1C ?
SIRT5 block: 1; S100A4 MyoIIA: 7; FGF22 binding: 0; ERp5 inh: -9; Yeast UUG start: 12

What do the screens show for `O=C(Cn1cnc2cc([N+](=O)[O-])ccc2c1=O)NCCc1ccc(F)cc1`?
SIRT5 block: -5; S100A4 MyoIIA: 2; PDI turbidity: -4; FGF22 binding: 0; ERp5 inh: 5; Yeast UUG start: -14

Reprinted at random: two entries already listed
How did NS(=O)(=O)c1ccc(CCNC(=O)c2cc(-c3ccccn3)nc3ccc(Br)cc23)cc1 do in these assays?
SIRT5 block: 1; S100A4 MyoIIA: -30; PDI turbidity: -4; FGF22 binding: 43*; ERp5 inh: 3

What do the screens show for `CCOc1cc2c(cc1OC)C(c1cccc([N+](=O)[O-])c1)NCC2` (stereo unspecified)?
SIRT5 block: -3; S100A4 MyoIIA: 1; PDI turbidity: 6; FGF22 binding: 43*; ERp5 inh: -4

Later entries
Results for CN(CC(=O)Nc1ccc(F)cc1)C(=O)Cn1cnc2ccc([N+](=O)[O-])cc2c1=O ?
SIRT5 block: 24*; S100A4 MyoIIA: -4; PDI turbidity: -5; FGF22 binding: 0; ERp5 inh: 6; Yeast UUG start: -14

Results for Cc1cc(SCC(=O)OCC(=O)N(C)C2CCS(=O)(=O)C2)c(C)cc1Br (stereo unspecified) ?
SIRT5 block: 19*; S100A4 MyoIIA: -2; PDI turbidity: -6; FGF22 binding: 0; ERp5 inh: 6; Yeast UUG start: -11

What do the screens show for `Cc1cccc2c(N=O)c(O)n(CCc3ccccc3)c12`?
SIRT5 block: 16*; S100A4 MyoIIA: -4; PDI turbidity: 4; FGF22 binding: 0; ERp5 inh: 5; Yeast UUG start: -14

What do the screens show for `CCCC(=O)Nc1ccc2c(c1)C(=O)N(C)C[C@@H](OC)[C@H](C)CN(Cc1ccccc1OC)[C@H](C)CO2`?
SIRT5 block: 0; S100A4 MyoIIA: 2; FGF22 binding: 0; ERp5 inh: -2; Yeast UUG start: -4

What do the screens show for `Cc1cccc(NC(=O)CNC(=O)c2ccccc2Cl)n1`?
SIRT5 block: 0; S100A4 MyoIIA: 99*; PDI turbidity: -2; FGF22 binding: 0; ERp5 inh: -1; Yeast UUG start: -7

How did COC(=O)c1ccccc1NC(=O)Nc1cccc(C)n1 do in these assays?
SIRT5 block: -2; S100A4 MyoIIA: -1; PDI turbidity: 14; FGF22 binding: 43*; ERp5 inh: 4; Yeast UUG start: -19

How did C[C@H]1CCCCO[C@H](CN(C)C(=O)c2ccncc2)[C@@H](C)CN([C@@H](C)CO)C(=O)c2cc(NS(C)(=O)=O)ccc2O1 do in these assays?
SIRT5 block: -3; S100A4 MyoIIA: -2; FGF22 binding: 1; ERp5 inh: 1; Yeast UUG start: 0

What do the screens show for `Cc1ccc2[nH]c(=O)cc(C(=O)OC(C)C)c2c1`?
SIRT5 block: 5; S100A4 MyoIIA: 5; PDI turbidity: 4; FGF22 binding: 43*; ERp5 inh: -4

What do the screens show for `CC(C)OC(=O)c1cc(=O)[nH]c2ccccc12`?
PDI turbidity: -4; Yeast UUG start: -12

Entries listed so far with an NH in an aromatic ring:
What do the screens show for `Cc1ccc2[nH]c(=O)cc(C(=O)OC(C)C)c2c1`?
SIRT5 block: 5; S100A4 MyoIIA: 5; PDI turbidity: 4; FGF22 binding: 43*; ERp5 inh: -4

What do the screens show for `CC(C)OC(=O)c1cc(=O)[nH]c2ccccc12`?
PDI turbidity: -4; Yeast UUG start: -12
